According to patent publication US20210205413A1, “SELECTIVE TREG STIMULATOR RUR20kD-IL-2 AND RELATED COMPOSITIONS” (Nektar Therapeutics, priority 2018, published 2021):

Assay: Solution phase stability by HPLC
Assay type: physicochemical
Conditions: 1.0 mg/mL solution pH 5; RT, 5° C., −20° C. up to 7 days; RP-HPLC
Experimental: Size exclusion high performance liquid chromatography (SEC-HPLC) can also be used to determine the purity and characterize an RUR20kD-IL-2 composition using an Agilent 1200 series instrument fitted with a diode array detector (UV at 280 nm) and a Yarra SEC-2000 column (Phenomenex), and an eluent flow rate of 0.225 mL/minute. The mobile phase is 0.2M ammonium acetate (pH 5.5) at a volume ratio of 80:20 with acetonitrile. The diluent/formulation buffer contained 10 mM sodium acetate, 200 mM sodium chloride, 2% sucrose, at a pH of 5.0. Frozen RUR20kD-IL-2 composition reference material and analytical samples are thawed and diluted to 1.0 mg/mL with formulation buffer. Samples are stable up to 5 days at 5° C. in solution.
The stability of solutions of 1.0 mg/mL of an RUR20kD-IL-2 composition (˜1 mg/mL of rhIL-2 equivalent in 10 mM sodium acetate, 200 mM sodium chloride, pH 5, containing 2% (w/v) sucrose) are evaluated under three different storage conditions—room temperature (ambient laboratory conditions), 5° C. (refrigerated), and −20° C. at 1, 3, 5, and 7-day time points by RP-HPLC as previously described.
Differences between the RUR20kD-IL-2 composition solutions are evaluated against a control, freshly prepared RUR20kD-IL-2 composition sample solution. […]

(1,3-bis(methoxypoly(ethylene glycol)10kDcarbamoyl)-2-propanoxy)-4-butanamide)interleukin-2) [RUR20kD-IL-2]
relative difference of Di-PEG and tri-PEG species vs nominal −70° C. storage: up to 1%
